Data on two compounds can be found in patent US20210221866A1, “PROTEASE-RESISTANT LIPIDATED GLP-1 ANALOGS” (MEDIMMUNE LIMITED, priority 2015, published 2021).

Chains of the proteins cited; added tags and fusions are not shown. Lines headed by an entry give the natural chain unless they say otherwise; changes in a name come on top. Residues count along the entry.
UniProt P00791, 60-385: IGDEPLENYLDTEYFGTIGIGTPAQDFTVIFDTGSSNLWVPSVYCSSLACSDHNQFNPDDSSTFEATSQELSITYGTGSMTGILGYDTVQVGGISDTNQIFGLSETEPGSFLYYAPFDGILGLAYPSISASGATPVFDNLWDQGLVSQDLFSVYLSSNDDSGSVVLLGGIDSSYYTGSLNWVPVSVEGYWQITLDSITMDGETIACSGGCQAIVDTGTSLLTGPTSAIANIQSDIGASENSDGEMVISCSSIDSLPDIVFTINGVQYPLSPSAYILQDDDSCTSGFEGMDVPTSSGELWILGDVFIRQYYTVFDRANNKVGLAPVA
UniProt P08473: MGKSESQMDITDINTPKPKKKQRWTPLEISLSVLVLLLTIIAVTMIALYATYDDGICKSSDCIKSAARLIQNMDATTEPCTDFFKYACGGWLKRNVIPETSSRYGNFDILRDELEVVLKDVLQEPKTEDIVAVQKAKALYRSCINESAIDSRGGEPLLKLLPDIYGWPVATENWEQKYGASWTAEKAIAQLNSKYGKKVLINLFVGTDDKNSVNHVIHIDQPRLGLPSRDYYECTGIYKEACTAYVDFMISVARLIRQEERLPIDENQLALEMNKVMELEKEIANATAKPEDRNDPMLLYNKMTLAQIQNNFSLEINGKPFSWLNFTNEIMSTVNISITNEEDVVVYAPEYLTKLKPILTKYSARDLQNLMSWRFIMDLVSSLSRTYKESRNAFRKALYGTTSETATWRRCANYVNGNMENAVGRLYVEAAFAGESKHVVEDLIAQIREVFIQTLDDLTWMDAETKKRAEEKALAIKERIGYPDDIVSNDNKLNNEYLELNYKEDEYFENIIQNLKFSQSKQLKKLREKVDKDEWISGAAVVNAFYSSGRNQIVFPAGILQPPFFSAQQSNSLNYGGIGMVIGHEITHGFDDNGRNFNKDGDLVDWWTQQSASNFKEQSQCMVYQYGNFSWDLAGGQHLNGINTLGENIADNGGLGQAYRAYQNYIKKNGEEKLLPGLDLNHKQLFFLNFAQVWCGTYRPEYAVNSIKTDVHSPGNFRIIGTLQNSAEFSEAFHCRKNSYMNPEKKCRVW
UniProt P00761, 9-231: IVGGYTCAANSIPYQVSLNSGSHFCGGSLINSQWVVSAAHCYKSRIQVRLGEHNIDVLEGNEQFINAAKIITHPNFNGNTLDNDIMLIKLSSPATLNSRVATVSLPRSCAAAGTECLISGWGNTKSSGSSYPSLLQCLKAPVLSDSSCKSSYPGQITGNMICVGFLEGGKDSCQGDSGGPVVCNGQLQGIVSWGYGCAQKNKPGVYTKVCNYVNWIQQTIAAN

The nature of series [1]: Proteolytic resistance to α-chymotrypsin (% remaining intact peptide, RP-HPLC AUC). As to conditions: recombinant α-chymotrypsin in assay buffer, pH 7.8.
The test system of series [2] is FASSIF/P (Fasted-State Simulated Intestinal Fluid+USP Pancreatin®). The series is described as follows: Proteolytic resistance to fasted-state simulated intestinal fluid (FASSIF/Pancreatin). The series is classed as in vitro ADME. As to conditions: t = 0; 37° C. The method, then: (§1) A fresh suspension of FASSIF/P (Fasted-State Simulated Intestinal Fluid+USP Pancreatin®) was prepared according to that described by Galia, Nicolaides, Hörter, Lobenberg, Reppas and Dressman: Pharm. Res. 15 (1998) 698-705. The resulting preparation is proteolytically equivalent to ˜375 units/mL (375 kU/L) and was used immediately without storage. Peptides for evaluation (1.0 mg, ˜250 nmoles) were initially dissolved in pre-warmed FASSIF without Pancreatin® (200 μL) to which was added pre-warmed fresh FASSIF/Pancreatin® (100 μL) to initiate potential digestion. Following momentary vortexing of the Eppendorf reaction tube the mixture was incubated at 37° C. in a thermostatic waterbath for the duration of the experiment. 25 μL aliquots of the co-incubated peptide-enzyme mixture were periodically withdrawn (t=0, 5 m, 10 m, 15 m, 30 m, 1 h, 2 h) and quenched immediately by addition to a solution of 10% TFA in 1:1 water/acetonitrile (75 μL) to arrest proteolytic activity.

Series [3] relates to FASSIF/Pancreatin® activated with 100 μg/mL human enterokinase. Put plainly: Proteolytic resistance to FASSIF/Pancreatin following full zymogen activation with enterokinase. The class given is in vitro ADME. As to conditions: t = 0; 37° C. The method, then:
as §1, with “Pharm. […] To the” for “Pharm. Res. 15 (1998) 698-705. The”, “preparation was added human enterokinase (100 μg/mL)” for “preparation is proteolytically equivalent”, “to ensure the potential for full zymogen activity of the mixture which” for “to ˜375 units/mL (375 kU/L) and”, “([…])” for “(100 μL)”

In series [4] the target is T1, porcine pancreatic pepsin (Sus scrofa, UniProt P00791).
T1 construct: purchased Sigma P7012
The series is described as follows: Proteolytic resistance to pepsin (% remaining intact peptide, RP-HPLC AUC). The class given is in vitro ADME. As to conditions: 37° C., pH 2.0. The method, then: Pepsin: Lyophilized porcine pancreatic pepsin (Sigma: P7012) was reconstituted to afford a solution of 200 μg/mL (˜500 units/mL) in assay buffer (0.1 M HCl, pH 2.0) to give the enzyme stock solution. […] Ratio enzyme (units):peptide (moles) ˜1:6. […] Ratio enzyme (units):peptide (μmoles) ˜2:1.
Lyophilized porcine pancreatic pepsin (Sigma: P7012) was reconstituted to […] (˜500 units/mL) in assay buffer ([…], pH 2.0) to give the enzyme stock solution.

Series [5] concerns recombinant α-chymotrypsin. The series is described as follows: Proteolytic resistance to α-chymotrypsin (% remaining intact peptide, RP-HPLC AUC). As to conditions: t = 0; 37° C., pH 7.8.
The next series has as its target T2, recombinant Neprilysin (Homo sapiens, UniProt P08473).
T2 construct: purchased R&D Systems 1182-ZNC-010
Put plainly: Proteolytic resistance to neprilysin (% remaining peptide, RP-HPLC AUC). The series is classed as in vitro ADME. As to conditions: 37° C., pH 8.3, enzyme:peptide ~1:33 for non-lipidated, ~1:2.5 for lipidated peptides. The source says: Ratio enzyme (units):peptide (moles) ˜1:33. […] Ratio enzyme (units):peptide (moles) ˜1:2.5.

Series [6] addresses porcine pancreatic trypsin (Sus scrofa, UniProt P00761). Put plainly: Proteolytic resistance to trypsin (% remaining intact peptide, RP-HPLC AUC). As to conditions: 37° C., pH 7.8. The series is classed as in vitro ADME.

On to `CCCCCCCCCCCC(=O)N[C@@H](CCC(=O)NCCOCCOCC(=O)NCCOCCOCC(=O)NCCCC[C@H](NC(=O)[C@H](C)NC(=O)[C@@H](NC(=O)[C@H](Cc1ccccc1)NC(=O)[C@H](CCC(=O)O)NC(=O)[C@](C)(CCCCN)NC(=O)[C@H](C)NC(=O)[C@H](C)NC(=O)[C@H](CCC(=O)O)NC(=O)CNC(=O)[C@H](CCC(=O)O)NC(=O)[C@H](CC(C)C)NC(=O)[C@H](CCCCNC(=O)COCCOCCNC(=O)COCCOCCNC(=O)CC[C@H](NC(=O)CCCCCCCCCCC)C(=O)O)NC(=O)[C@H](CO)NC(=O)[C@](C)(CO)NC(=O)[C@@H](NC(=O)[C@H](CC(=O)O)NC(=O)[C@H](CO)NC(=O)[C@@H](NC(=O)[C@](C)(Cc1ccccc1)NC(=O)[C@H](CO)NC(=O)CNC(=O)[C@H](CCC(=O)O)NC(=O)C(C)(C)NC(=O)[C@@H](N)Cc1c[nH]cn1)[C@@H](C)O)C(C)C)[C@@H](C)CC)C(=O)N[C@H](C(=O)N[C@H](C(=O)N[C@@H](CCC(=O)O)C(=O)NCC(=O)NCC(N)=O)C(C)C)C(C)C)C(=O)O` [compound 263], for which the amount remaining at 2 h in series [1] amounted to 92.2%.
As for “H-Aib^2-EGTFTSDVSSYLEGQAAK(ε-(PEG)2-(PEG)2-γE-stearate)EFIAWLVRGRG-acid [Semaglutide]”, the “Percentage remaining intact peptide (AUC by RP-HPLC) upon incubation with fasted-state simulated intestinal fluid (FASSIF/P)” value in series [2] is listed as 100%. For the same compound, the “Percentage remaining intact peptide (AUC by RP-HPLC) upon incubation with FASSIF activated with 100 μg/mL enterokinase” value in series [3] was 100%. The “Percentage remaining intact peptide (AUC by RP-HPLC) upon incubation with pepsin” value is given as 100% in series [4] (t = 0); 10.4% in series [4] (t = 30 min); 0.0% in series [4] (t = 1 hr); 0.0% in series [4] (t = 2 hr); 0.0% in series [4] (t = 4 hr); 0.0% in series [4] (t = 8 hr). In addition, in series [4] (t = 24 hr), the “Percentage remaining intact peptide (AUC by RP-HPLC) upon incubation with pepsin” value is listed as 0.0%. Besides, in series [5], the “Percentage remaining intact peptide (AUC by RP-HPLC) upon incubation with α-chymotrypsin” value is 100%. The “Percentage remaining peptide (AUC at specified time-point by RP-HPLC) upon incubation with neprilysin, t = 0” value on recombinant Neprilysin (t = 0 (baseline)) was 100%. Besides, on recombinant Neprilysin (t = 30 min), the “Percentage remaining peptide (AUC at specified time-point by RP-HPLC) upon incubation with neprilysin, t = 30 min” value came to 93.8%. Moreover, at recombinant Neprilysin (t = 1 hr), the “Percentage remaining peptide (AUC at specified time-point by RP-HPLC) upon incubation with neprilysin, t = 1 hr” value is given as 92.2%. Further, the “Percentage remaining peptide (AUC at specified time-point by RP-HPLC) upon incubation with neprilysin, t = 2 hr” value on recombinant Neprilysin (t = 2 hr) was found to be 84.9%. Further, on recombinant Neprilysin (t = 4 hr), the “Percentage remaining peptide (AUC at specified time-point by RP-HPLC) upon incubation with neprilysin, t = 4 hr” value amounted to 78.1%. Also, the “Percentage remaining peptide (AUC at specified time-point by RP-HPLC) upon incubation with neprilysin, t = 8 hr” value at recombinant Neprilysin (t = 8 hr) is 61.3%. In addition, the “Percentage remaining peptide (AUC at specified time-point by RP-HPLC) upon incubation with neprilysin, t = 24 hr” value on recombinant Neprilysin (t = 24 hr) worked out at 29.8%. Besides, the “Percentage remaining intact peptide (AUC by RP-HPLC) upon incubation with trypsin” value is recorded as 100.0% in series [6] (t = 0); 0.0% in series [6] (t = 30 min); 0.0% in series [6] (t = 1 hr); 0.0% in series [6] (t = 2 hr); 0.0% in series [6] (t = 4 hr); 0.0% in series [6] (t = 8 hr). The “Percentage remaining intact peptide (AUC by RP-HPLC) upon incubation with trypsin” value in series [6] (t = 24 hr) was found to be 0.0%.
